Data: article PMC9636434, “Discovery of small molecule agonists of the Relaxin Family Peptide Receptor 2” (Communications Biology, 2022)
Values joined by “and” are separate entries in the source; they are usually repeats but may differ in a detail not shown here. Equal values may be shown once. Blank lines part the entries; values can stand above or below the molecule they belong to.

By UniProt entry, the sequences of proteins in these tests, tags left out. Residues count along the entry.
UniProt P30542, whole entry: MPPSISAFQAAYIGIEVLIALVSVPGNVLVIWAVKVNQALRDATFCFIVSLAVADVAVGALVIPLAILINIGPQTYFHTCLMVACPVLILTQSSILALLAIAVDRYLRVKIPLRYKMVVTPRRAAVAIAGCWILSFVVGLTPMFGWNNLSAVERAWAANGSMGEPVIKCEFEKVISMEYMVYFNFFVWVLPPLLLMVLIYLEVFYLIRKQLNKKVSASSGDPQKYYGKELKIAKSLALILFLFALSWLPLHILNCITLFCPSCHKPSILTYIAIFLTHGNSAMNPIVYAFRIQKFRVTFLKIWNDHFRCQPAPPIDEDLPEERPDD
UniProt P22888, 27-699: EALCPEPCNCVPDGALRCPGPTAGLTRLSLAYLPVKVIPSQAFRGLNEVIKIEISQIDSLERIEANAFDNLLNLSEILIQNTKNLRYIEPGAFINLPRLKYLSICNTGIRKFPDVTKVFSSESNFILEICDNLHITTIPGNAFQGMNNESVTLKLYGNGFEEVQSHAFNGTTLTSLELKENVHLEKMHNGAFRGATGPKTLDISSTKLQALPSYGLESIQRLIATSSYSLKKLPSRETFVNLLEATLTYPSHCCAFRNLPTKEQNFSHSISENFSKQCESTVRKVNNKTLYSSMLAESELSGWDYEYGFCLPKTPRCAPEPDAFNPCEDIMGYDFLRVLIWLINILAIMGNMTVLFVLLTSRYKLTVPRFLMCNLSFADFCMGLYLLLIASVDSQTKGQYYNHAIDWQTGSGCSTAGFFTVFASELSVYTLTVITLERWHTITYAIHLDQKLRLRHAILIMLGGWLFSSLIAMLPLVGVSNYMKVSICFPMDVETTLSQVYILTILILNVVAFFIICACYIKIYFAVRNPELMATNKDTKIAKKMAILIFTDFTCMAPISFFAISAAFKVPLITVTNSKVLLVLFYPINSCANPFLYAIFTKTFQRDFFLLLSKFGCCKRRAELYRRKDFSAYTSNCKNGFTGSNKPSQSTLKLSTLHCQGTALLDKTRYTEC

Legend:
Format in all cases: cell-based
[1] = biological target: T1, human ADORA1 (Homo sapiens, UniProt P30542); test: GloSensor cAMP inhibition assay in ADORA1 transiently transfected HEK293T cells; conditions: replicates (1)-(4)
[2] = biological target: T1, human ADORA1; test: PRESTO-Tango β-arrestin recruitment, ADORA1 transfected HTLA cells; conditions: replicates (1)-(4)
[3] = biological target: T2, human PTHR1 (Homo sapiens, UniProt Q03431); test: HitHunter cAMP XS+ assay, cAMP Hunter cell line PTHR1; conditions: replicates (1),(2)
T2 sequence (Q03431 27-593): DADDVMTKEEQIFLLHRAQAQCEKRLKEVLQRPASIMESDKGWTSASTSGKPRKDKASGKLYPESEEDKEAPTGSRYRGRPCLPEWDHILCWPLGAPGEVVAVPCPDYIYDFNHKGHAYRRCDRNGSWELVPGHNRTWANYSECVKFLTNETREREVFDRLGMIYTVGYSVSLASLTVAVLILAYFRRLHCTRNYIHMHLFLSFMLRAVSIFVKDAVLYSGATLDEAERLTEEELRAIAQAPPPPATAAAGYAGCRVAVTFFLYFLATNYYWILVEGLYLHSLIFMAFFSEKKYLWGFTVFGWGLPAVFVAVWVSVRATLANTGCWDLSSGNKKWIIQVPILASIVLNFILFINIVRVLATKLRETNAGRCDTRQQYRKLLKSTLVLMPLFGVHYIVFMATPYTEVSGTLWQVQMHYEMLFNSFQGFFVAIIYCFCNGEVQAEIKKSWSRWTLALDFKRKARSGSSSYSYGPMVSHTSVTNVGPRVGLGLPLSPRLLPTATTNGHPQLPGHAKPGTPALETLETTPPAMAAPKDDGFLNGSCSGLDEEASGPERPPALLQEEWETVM
Description: (§1) Results are reported as raw RLU values and represent the
(§2) mean ± SEM of 2 technical replicates.

[4] = biological target: human LHCGR (Homo sapiens, UniProt P22888); test: HitHunter cAMP XS+ assay, cAMP Hunter cell line LHCGR; conditions: replicates (1),(2)
Description: as §1, §2

[5] = biological target: human TSHR (Homo sapiens, UniProt P16473); test: HitHunter cAMP XS+ assay, cAMP Hunter cell line TSHR; conditions: replicates (1),(2)
Description: as §1, §2

[6] = biological target: T3, human FSHR (Homo sapiens, UniProt P23945); test: HitHunter cAMP XS+ assay, cAMP Hunter cell line FSHR; conditions: replicates (1),(2)
T3 sequence (P23945 18-695): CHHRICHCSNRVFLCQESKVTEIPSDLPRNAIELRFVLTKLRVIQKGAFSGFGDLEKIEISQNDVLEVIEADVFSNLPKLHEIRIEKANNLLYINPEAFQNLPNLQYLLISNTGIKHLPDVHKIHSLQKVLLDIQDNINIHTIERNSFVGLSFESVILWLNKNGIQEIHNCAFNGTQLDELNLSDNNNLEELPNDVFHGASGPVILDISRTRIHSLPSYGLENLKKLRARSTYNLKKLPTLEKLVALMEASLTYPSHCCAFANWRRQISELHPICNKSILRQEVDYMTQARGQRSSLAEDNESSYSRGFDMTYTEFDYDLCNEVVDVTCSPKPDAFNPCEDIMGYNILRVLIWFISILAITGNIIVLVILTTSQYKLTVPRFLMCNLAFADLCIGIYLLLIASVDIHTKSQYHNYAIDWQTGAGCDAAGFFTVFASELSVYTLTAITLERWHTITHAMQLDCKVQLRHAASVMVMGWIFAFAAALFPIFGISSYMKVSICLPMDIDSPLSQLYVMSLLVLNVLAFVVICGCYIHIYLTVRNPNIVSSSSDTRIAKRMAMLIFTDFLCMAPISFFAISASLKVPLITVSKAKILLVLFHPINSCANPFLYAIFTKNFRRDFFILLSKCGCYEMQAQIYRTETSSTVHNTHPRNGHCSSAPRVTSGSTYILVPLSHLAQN
Description: as §1, §2

Molecule: CCNC(=O)[C@H]1O[C@@H](n2cnc3c(N)ncnc32)[C@H](O)[C@@H]1O [NECA, 5′-(N-Ethylcarboxamido)adenosine, reference compound]
- RLU ([1]; Log [M] -7): 155.635 RLU and 159.8 RLU and 151.469 RLU and 140.758 RLU
- RLU ([1]; Log [M] -7.52): 144.923 RLU and 169.322 RLU and 124.691 RLU and 162.181 RLU
- RLU ([1]; Log [M] -8): 135.402 RLU and 150.874 RLU and 144.923 RLU and 159.205 RLU
- RLU ([1]; Log [M] -8.52): 160.339 RLU and 176.195 RLU and 138.442 RLU and 190.541 RLU
- RLU ([1]; Log [M] -9): 217.723 RLU and 200.357 RLU and 226.784 RLU and 215.458 RLU
- RLU ([1]; Log [M] -9.52): 229.804 RLU and 201.867 RLU and 252.455 RLU and 293.228 RLU
- RLU ([1]; Log [M] -10): 297.759 RLU and 328.716 RLU and 225.273 RLU and 301.534 RLU
- RLU ([1]; Log [M] -10.52): 274.352 RLU and 297.759 RLU and 272.842 RLU and 312.86 RLU
- RLU ([1]; Log [M] -11): 320.41 RLU and 317.39 RLU and 370.244 RLU and 303.044 RLU
- RLU ([1]; Log [M] -11.52): 343.062 RLU and 282.658 RLU and 298.514 RLU and 402.711 RLU
- RLU ([1]; Log [M] -12): 305.309 RLU and 268.312 RLU and 278.127 RLU and 297.759 RLU
- RLU ([2]; Log [M] -4.52): 54613.2 RLU and 47969.8 RLU and 51710.1 RLU and 49000.1 RLU
- RLU ([2]; Log [M] -5): 45093.2 RLU and 42154.9 RLU and 45163.5 RLU and 49770.8 RLU
- RLU ([2]; Log [M] -5.52): 44861 RLU and 39719.3 RLU and 41641.6 RLU and 44808.6 RLU
- RLU ([2]; Log [M] -6): 40028.9 RLU and 41209.2 RLU and 44508.4 RLU and 42764.7 RLU
- RLU ([2]; Log [M] -6.52): 45202.8 RLU and 42879 RLU and 43685.4 RLU and 43335.2 RLU
- RLU ([2]; Log [M] -7): 34782.9 RLU and 41719 RLU and 42179.9 RLU and 49034.7 RLU
- RLU ([2]; Log [M] -7.52): 38391.4 RLU and 46085.4 RLU and 42431.2 RLU and 46471.3 RLU
- RLU ([2]; Log [M] -8): 34384 RLU and 36270.3 RLU and 36577.6 RLU and 36064.3 RLU
- RLU ([2]; Log [M] -8.52): 22996.7 RLU and 25279.3 RLU and 24270.2 RLU and 27847.4 RLU
- RLU ([2]; Log [M] -9): 15401.9 RLU and 14513.8 RLU and 13368.9 RLU and 15735.7 RLU
- RLU ([2]; Log [M] -9.52): 5598.44 RLU and 5306.97 RLU and 6285.59 RLU and 6308.24 RLU
- RLU ([2]; Log [M] -10): 3715.22 RLU and 4002.15 RLU and 4645.49 RLU and 4239.25 RLU
- RLU ([2]; Log [M] -10.52): 2896.7 RLU and 4230.19 RLU and 2168.81 RLU and 3355.8 RLU
- RLU ([2]; Log [M] -11): 3218.37 RLU and 3864.72 RLU and 3165.51 RLU and 3694.07 RLU
- RLU ([2]; Log [M] -11.52): 3357.3 RLU and 3231.96 RLU and 2141.63 RLU and 3882.85 RLU
- RLU ([2]; Log [M] -12): 2935.97 RLU and 2547.86 RLU and 3902.48 RLU and 2470.84 RLU

Molecule: O=C1Nc2ccc(-c3cc(C(F)(F)F)cc(C(F)(F)F)c3)cc2C(=O)N2CCN(C(=O)COc3ccc(OC(F)(F)F)cc3I)C[C@@H]12 [compound 6641]
- RLU ([3]; Log [M] -4.70): 1160 RLU
- RLU ([3]; Log [M] -8.99): 1160 RLU
- RLU ([4]; Log [M] -6.13): 1160 RLU
- RLU ([4]; Log [M] -7.56): 1320 RLU
- RLU ([4]; Log [M] -8.52): 1160 RLU
- RLU ([2]; Log [M] -4.52): 12216.4 RLU and 11934 RLU
- RLU ([2]; Log [M] -5): 11869.4 RLU
- RLU ([5]; Log [M] -6.61): 1160 RLU

- RLU ([6]; Log [M] -7.00): 9840 RLU and 10000 RLU
- RLU ([6]; Log [M] -7.48): 9640 RLU and 9560 RLU
- RLU ([6]; Log [M] -7.95): 9680 RLU and 9120 RLU
- RLU ([6]; Log [M] -8.43): 9320 RLU and 9120 RLU
- RLU ([6]; Log [M] -8.91): 6520 RLU and 6440 RLU
- RLU ([6]; Log [M] -9.39): 1160 RLU and 720 RLU
- RLU ([6]; Log [M] -9.86): 480 RLU and 560 RLU
- RLU ([6]; Log [M] -10.34): 600 RLU and 520 RLU
- RLU ([6]; Log [M] -10.82): 600 RLU and 720 RLU
- RLU ([6]; Log [M] -11.29): 640 RLU and 600 RLU
Molecule: FSH

- RLU ([5]; Log [M] -6.52): 11800 RLU and 11240 RLU
- RLU ([5]; Log [M] -7.00): 11840 RLU and 12160 RLU
- RLU ([5]; Log [M] -7.48): 11440 RLU and 11640 RLU
- RLU ([5]; Log [M] -7.95): 11920 RLU and 12320 RLU
- RLU ([5]; Log [M] -8.43): 12240 RLU and 12480 RLU
- RLU ([5]; Log [M] -8.91): 12160 RLU and 11840 RLU
- RLU ([5]; Log [M] -9.39): 12040 RLU and 11800 RLU
- RLU ([5]; Log [M] -9.86): 9400 RLU and 9680 RLU
- RLU ([5]; Log [M] -10.34): 1800 RLU and 1960 RLU
- RLU ([5]; Log [M] -10.82): 720 RLU and 760 RLU
Molecule: TSH

- RLU ([4]; Log [M] -8.00): 9560 RLU and 9280 RLU
- RLU ([4]; Log [M] -8.48): 9480 RLU and 9760 RLU
- RLU ([4]; Log [M] -8.95): 9640 RLU and 9760 RLU
- RLU ([4]; Log [M] -9.43): 9400 RLU and 8560 RLU
- RLU ([4]; Log [M] -9.91): 5640 RLU and 6200 RLU
- RLU ([4]; Log [M] -10.39): 1480 RLU and 1320 RLU
- RLU ([4]; Log [M] -10.86): 760 RLU and 800 RLU
- RLU ([4]; Log [M] -11.34): 760 RLU and 640 RLU
- RLU ([4]; Log [M] -11.82): 720 RLU and 680 RLU
- RLU ([4]; Log [M] -12.29): 720 RLU and 760 RLU
Molecule: hCG
